Laboratory results as given in PubChem BioAssay AID651658 (Broad Institute, 2012).
The list shows a part of the results, in another mix than the full data. Active and inactive are the calls of the source.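 Rule for the calls: active = mean Tm shift, scaled 0 neutral to 100 positive control, at about 1.3% or above, every replicate too (limit read from the data); inconclusive = no clear call, values can overlap the other calls; inactive = the rest.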

The chains behind the UniProt entries cited, without tags or fusion partners. Where a name states a change or a piece, a line headed by the entry shows the natural chain unless it says otherwise.
UniProt Q9HCT0: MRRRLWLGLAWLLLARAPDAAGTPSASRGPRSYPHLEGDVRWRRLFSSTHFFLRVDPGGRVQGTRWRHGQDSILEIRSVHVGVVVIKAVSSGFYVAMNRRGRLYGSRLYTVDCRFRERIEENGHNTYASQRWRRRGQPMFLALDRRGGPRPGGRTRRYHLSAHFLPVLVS

These compounds were tested against Fibroblast growth factor 22 (Homo sapiens) (UniProt Q9HCT0) (assay: FGF22 ligand-induced thermal stabilization – biophysical, thermal shift, single point, FGF22 synaptogenesis inhibitor project, primary screen (AID 651658)). Details: recombinant FGF22 thermal shift, SYPRO orange fluorescence; at 9.99 µM; active compounds read high; percent of sucrose octasulfate shift, DMSO zero.
In the case of `COc1ccc(N)c([N+](=O)[O-])c1[N+](=O)[O-]`, the activity (Tm shift, normalised) is reported as active: 43.2%.
For `Nc1ccc(CCCCOc2ccccc2)cc1`, the activity (Tm shift, normalised) was active: 1.64%.
`O=c1c2cc([N+](=O)[O-])ccc2[nH]c2c([N+](=O)[O-])cc([N+](=O)[O-])cc12` was tested, and the activity (Tm shift, normalised) was active: 43.1%.
In the case of `COP(=O)(OC)N1CC1c1ccccc1` (stereo not given), the activity (Tm shift, normalised) is reported as active: 43.7%.
With `Cc1ccc(S(=O)(=O)N(CCCN)CCCc2c(C)nc(N)[nH]c2=O)cc1` the activity (Tm shift, normalised) was active: 2.19%.
